Drawing on ChEMBL document CHEMBL1139435, “Beta-oxygenated analogues of the 5-HT2A serotonin receptor agonist 1-(4-bromo-2,5-dimethoxyphenyl)-2-aminopropane” (J Med Chem, 2004), this text covers EC50, Efficacy and Ki for two compounds.

Chains of the proteins cited; added tags and fusions are not shown.
UniProt P14842, whole entry: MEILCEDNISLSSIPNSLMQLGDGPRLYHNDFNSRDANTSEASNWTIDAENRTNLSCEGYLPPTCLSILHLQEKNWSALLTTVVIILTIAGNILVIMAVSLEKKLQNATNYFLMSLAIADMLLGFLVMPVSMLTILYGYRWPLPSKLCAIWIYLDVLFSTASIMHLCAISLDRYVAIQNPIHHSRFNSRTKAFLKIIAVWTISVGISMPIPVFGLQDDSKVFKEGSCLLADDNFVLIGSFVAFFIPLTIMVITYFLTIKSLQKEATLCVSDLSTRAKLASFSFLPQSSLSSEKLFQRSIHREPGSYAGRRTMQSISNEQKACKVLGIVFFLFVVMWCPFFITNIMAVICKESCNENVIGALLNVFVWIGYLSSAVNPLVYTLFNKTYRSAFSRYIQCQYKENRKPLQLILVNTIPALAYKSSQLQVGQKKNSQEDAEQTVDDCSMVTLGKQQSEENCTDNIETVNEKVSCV

Assay [1] addresses T1, 5-hydroxytryptamine receptor 2A (Rattus norvegicus, UniProt P14842). As to the kind of experiment: Serotonin 5-HT2A receptor-mediated intracellular calcium [Ca2+] mobilization in rat A7r5 cells. The format is functional, cell-based. In outline: (§1)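 Rat A7r5 vascular smooth muscle cells grown in DMEM/10% FBS, seeded at 20 000 cells/well, cultured 2 days. Loaded with calcium dye in HBSS/20 mM HEPES/2.5 mM probenecid pH 7.4 for 1 h at 23 °C. Response is peak minus basal fluorescence, expressed as % of maximal 5-HT response.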
(In general: Calcium assays in cells follow changes in intracellular calcium, usually with a dye or a luminescent sensor.)

Assay [2] deals with 5-hydroxytryptamine receptor 2A (Rattus norvegicus) (UniProt P14842). As to the kind of experiment: Efficacy as 5-HT2A receptor-mediated intracellular calcium [Ca2+] mobilization in rat A7r5 cells. It is filed as functional, cell-based. In a few lines: as §1
The target in assay [3] is T1, 5-hydroxytryptamine receptor 2A. As to the kind of experiment: Binding affinity for 5-HT2A serotonin receptor. In outline: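 Incubated 1 h at 23 °C. Nonspecific binding defined with methiothepin (10 µM final). Ended by vacuum filtration over GF/B filters presoaked in 0.3% polyethyleneimine, washed with ice-cold buffer. Bound counts read by scintillation. IC50 for displacing labelled DOI binding.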

Consider `COc1cc(C[C@@H](C)N)c(OC)cc1Br`, for which, in assay [1], the EC50 is 20 nM. In addition, the Efficacy in assay [2] is 51%. Besides, in assay [3], the Ki amounted to 0.2 nM.

As to `COc1cc(CC(C)N)c(OC)cc1Br` (stereo not given) [BROLAMFETAMINE], the concentration for a half-maximal effect (EC50) in assay [1] was determined as 60 nM. Further, the affinity in assay [3], expressed as Ki, was 0.1 nM.

One may read the EC50 as the concentration needed to bring the measured effect to its halfway point. What is called Ki is the dissociation constant of the complex between target and ligand, obtained from inhibition or displacement.
